The record followed here is USRE39197E1, “Cell adhesion-inhibiting antiinflammatory and immune-suppressive compounds” (Abbott Laboratories, priority 1998, dated 2006).

Protein sequences, listed by entry. Tags and fused reporters are not part of them. Residues count along the entry.
UniProt P20701, 26-1170: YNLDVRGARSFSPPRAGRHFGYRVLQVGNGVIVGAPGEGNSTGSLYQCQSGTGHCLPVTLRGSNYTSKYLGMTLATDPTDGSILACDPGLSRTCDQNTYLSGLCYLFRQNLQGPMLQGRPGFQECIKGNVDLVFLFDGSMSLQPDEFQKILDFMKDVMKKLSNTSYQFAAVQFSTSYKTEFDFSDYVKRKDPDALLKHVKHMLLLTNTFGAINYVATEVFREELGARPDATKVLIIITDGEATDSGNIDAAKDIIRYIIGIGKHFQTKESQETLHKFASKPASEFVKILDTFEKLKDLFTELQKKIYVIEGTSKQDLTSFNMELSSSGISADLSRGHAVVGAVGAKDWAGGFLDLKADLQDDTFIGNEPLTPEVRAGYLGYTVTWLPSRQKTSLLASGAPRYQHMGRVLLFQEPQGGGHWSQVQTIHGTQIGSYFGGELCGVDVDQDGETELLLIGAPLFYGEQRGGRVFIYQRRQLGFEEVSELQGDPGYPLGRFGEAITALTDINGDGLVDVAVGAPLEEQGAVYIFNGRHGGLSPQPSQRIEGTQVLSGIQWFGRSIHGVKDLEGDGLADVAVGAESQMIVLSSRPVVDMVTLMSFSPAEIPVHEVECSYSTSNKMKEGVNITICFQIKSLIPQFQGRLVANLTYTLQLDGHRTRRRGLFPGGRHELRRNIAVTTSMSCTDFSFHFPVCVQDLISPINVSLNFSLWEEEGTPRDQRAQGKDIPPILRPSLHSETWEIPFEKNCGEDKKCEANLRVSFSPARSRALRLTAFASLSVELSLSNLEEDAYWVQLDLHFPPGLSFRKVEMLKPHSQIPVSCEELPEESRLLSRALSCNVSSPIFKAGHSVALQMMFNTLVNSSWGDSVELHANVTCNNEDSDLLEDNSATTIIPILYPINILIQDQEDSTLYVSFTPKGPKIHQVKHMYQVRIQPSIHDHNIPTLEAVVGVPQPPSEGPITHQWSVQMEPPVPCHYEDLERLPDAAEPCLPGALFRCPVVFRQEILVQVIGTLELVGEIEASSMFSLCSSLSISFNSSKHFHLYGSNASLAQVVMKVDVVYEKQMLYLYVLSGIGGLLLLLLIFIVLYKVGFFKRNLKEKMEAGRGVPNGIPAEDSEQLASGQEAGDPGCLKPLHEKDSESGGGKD

Molecules are shown by their SMILES.

For this test, the target named is T1, interaction between the integrin LFA-1 and its adhesion partner ICAM-1 (Homo sapiens, UniProt P20701).
T1 construct: Recombinant LFA-1 (100 μL of 0.7 μg/ml mL, ICOS Corporation) in D-PBS; purchased ICOS Corporation
The experiment in a line: ICAM-1/LFA-1 Biochemical Interaction Assay. The test is classed as binding. Particulars: read-out: % inhibition @ 4 μM.

In general, inhibition refers to the percentage by which the read-out fell short of the control.

Regarding `CC(=O)N1CCN(C(=O)/C=C/c2ccc(Sc3ccccc3C(C)C)c([N+](=O)[O-])c2)CC1` [Example 50, (2-iso-Propylphenyl)[2-nitro-4-(E-((4-acetylpiperazin-1-yl)carbonyl)ethenyl)phenyl]sulfide], the inhibition at 4 µM is 94%.
